Source: patent US5561161A, “Methods of administering and pharmaceutical formulations containing n-substituted benzamides and/or acid addition salts thereof” (priority 1994, dated 1996)

Conditions: about one to about 5 mg/kg

In the case of `CCN(CC)CCNC(=O)c1cc(Cl)c(N)cc1OC` [metoclopramide], the “rate of availability of a given dose by i.m. compared with i.v. injection” value is reported as “comparable to that of the same dose administered by i.v. injection”.
